The record followed here is PubChem BioAssay AID602252 (Broad Institute, 2012).

The list shows a part of the results, in another mix than the full data. Active and inactive are the calls of the source.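 The calls were made as follows: active = mean inhibition of at least 30% with at least half of replicates also reaching 30%; inconclusive = no clear call, values can overlap the other calls; inactive = the rest.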

For the assay, the target named is Golgi-associated PDZ and coiled-coil motif-containing protein (Homo sapiens) (UniProt Q9HD26). Put plainly: untagged CAL PDZ binding inhibitors, primary screen, biochemical, fluorescence polarization, HTS (AID 602252).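 Also: 0% = DMSO neutral control and 100% = excess unlabeled competitor peptide PRC23.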 Conditions: purified CAL PDZ, TMR-peptide fluorescence polarization, 1 h; at 24.9 µM; active compounds read high.
A word on the inhibition: it is the drop in the measured response relative to a control, in per cent. Take `CP(=O)(Nc1ccc(SC(F)(F)F)cc1)Oc1ccccc1` (stereo not given): the inhibition was inactive: -5.05%.

Turning to `CC1=C2N=C(C=C3N=C(C(C)=C4[N-][C@@](C)([C@@H]5N=C1[C@](C)(CCC(=O)NC[C@@H](C)OP(=O)([O-])O[C@H]1[C@@H](O)[C@@H](n6cnc7cc(C)c(C)cc76)O[C@@H]1CO)[C@H]5CC(N)=O)[C@@](C)(CC(N)=O)[C@@H]4CCC(N)=O)[C@@](C)(CC(N)=O)[C@@H]3CCC(N)=O)C(C)(C)[C@@H]2CCC(N)=O.[C-]#N.[Co+3]`, the inhibition is inactive: -2.46%.

Regarding `O=[N+]([O-])c1cc([N+](=O)[O-])c(Nc2nnnn2CCO)c([N+](=O)[O-])c1`, the inhibition is inactive: -1.51%. As for `CCOC(=O)C(CC)C1=NC(C)(C)Cc2ccccc21.O=[N+]([O-])c1cc([N+](=O)[O-])c(O)c([N+](=O)[O-])c1` (stereo not given), the inhibition is inactive: 0.357%. For `Cc1nc2ccc3ccccc3c2s1.O=[N+]([O-])c1cc([N+](=O)[O-])c(O)c([N+](=O)[O-])c1` the value was inactive: -2.59%.

With `O=[N+]([O-])c1cc([N+](=O)[O-])c(-n2nnc3ccccc32)c([N+](=O)[O-])c1`, the inhibition was inactive: 0.667%. For `CCOP(C)(=S)SCC(=O)NC(C)C(=O)O` (stereo not given) the value was inactive: 0.288%. Turning to `CCOC(=O)c1ccc(NP(C)(=O)Oc2ccc(OC)cc2)cc1` (stereo not given), the inhibition is inactive: -0.99%. With `CP(=O)(Nc1ccccn1)Oc1ccc(Cl)cc1` (stereo not given), the inhibition was inactive: -1.59%.

In the case of `Cc1cccc(C)c1OP(C)(=O)Nc1ccc(SC(F)(F)F)cc1` (stereo not given), the inhibition was inactive: -2.71%.

Consider `CP(=O)(Oc1ccccc1)OC(c1ccccc1)C(F)(F)F` (stereo not given), for which the inhibition was inactive: -10.2%. Turning to `CP(=O)(NC(=O)Nc1ccccc1)Oc1ccccc1` (stereo not given), the inhibition was inactive: -0.703%.

For the compound `Cc1cc(C)cc(OP(C)(=O)Nc2ccc(SC(F)(F)F)cc2)c1` (stereo not given), the inhibition is inactive: -3.36%.

On to `COc1ccccc1OP(C)(=O)Nc1ccccc1` (stereo not given), for which the inhibition is inactive: -6.63%. In the case of `CCOC(=O)c1ccc(NP(C)(=O)Oc2ccccc2)cc1` (stereo not given), the inhibition is inactive: -2.55%. Next, `COc1ccccc1OP(C)(=O)Nc1ccc(C)cc1` (stereo not given): inactive: -1.39%. For `Cc1ccc(NP(C)(=O)Oc2ccccc2)c(C)c1` (stereo not given) the value was inactive: -2.63%; for `COc1ccccc1OP(C)(=O)Nc1cc(Cl)ccc1C` (stereo not given), inactive: 4.09%; for `COc1ccc(OP(C)(=O)Nc2cccc(F)c2)cc1` (stereo not given), inactive: 1.22%. For `Cc1cc(C)cc(OP(C)(N)=O)c1` (stereo not given) the value was inactive: -2.74%; for `O=[N+]([O-])c1cc([N+](=O)[O-])c(Nc2cccnc2)c([N+](=O)[O-])c1`, inactive: -0.163%; for `CC(C)(C)c1ccc(OP(C)(=O)Nc2ccc(SC(F)(F)F)cc2)cc1` (stereo not given), inactive: -3.27%. `Cc1cccc(C)c1OP(C)(N)=O` (stereo not given): the inhibition was inactive: -2.58%. For `O=[N+]([O-])c1ccc2c(c1)C=Nc1ccccc1O2` the value was inactive: 7.63%; for `CCN(CC)CCCOC(=O)C(O)(c1ccccc1)c1ccccc1`, inactive: -2.95%.
